Experimental data as given in ChEMBL document CHEMBL3392967, “Phosphatidylinositol 3-Kinase (PI3K) and phosphatidylinositol 3-kinase-related kinase (PIKK) inhibitors: importance of the morpholine ring” (J Med Chem, 2015).

The chains behind the UniProt entries cited, without tags or fusion partners. Where a name states a change or a piece, a line headed by the entry shows the natural chain unless it says otherwise.
UniProt P48736: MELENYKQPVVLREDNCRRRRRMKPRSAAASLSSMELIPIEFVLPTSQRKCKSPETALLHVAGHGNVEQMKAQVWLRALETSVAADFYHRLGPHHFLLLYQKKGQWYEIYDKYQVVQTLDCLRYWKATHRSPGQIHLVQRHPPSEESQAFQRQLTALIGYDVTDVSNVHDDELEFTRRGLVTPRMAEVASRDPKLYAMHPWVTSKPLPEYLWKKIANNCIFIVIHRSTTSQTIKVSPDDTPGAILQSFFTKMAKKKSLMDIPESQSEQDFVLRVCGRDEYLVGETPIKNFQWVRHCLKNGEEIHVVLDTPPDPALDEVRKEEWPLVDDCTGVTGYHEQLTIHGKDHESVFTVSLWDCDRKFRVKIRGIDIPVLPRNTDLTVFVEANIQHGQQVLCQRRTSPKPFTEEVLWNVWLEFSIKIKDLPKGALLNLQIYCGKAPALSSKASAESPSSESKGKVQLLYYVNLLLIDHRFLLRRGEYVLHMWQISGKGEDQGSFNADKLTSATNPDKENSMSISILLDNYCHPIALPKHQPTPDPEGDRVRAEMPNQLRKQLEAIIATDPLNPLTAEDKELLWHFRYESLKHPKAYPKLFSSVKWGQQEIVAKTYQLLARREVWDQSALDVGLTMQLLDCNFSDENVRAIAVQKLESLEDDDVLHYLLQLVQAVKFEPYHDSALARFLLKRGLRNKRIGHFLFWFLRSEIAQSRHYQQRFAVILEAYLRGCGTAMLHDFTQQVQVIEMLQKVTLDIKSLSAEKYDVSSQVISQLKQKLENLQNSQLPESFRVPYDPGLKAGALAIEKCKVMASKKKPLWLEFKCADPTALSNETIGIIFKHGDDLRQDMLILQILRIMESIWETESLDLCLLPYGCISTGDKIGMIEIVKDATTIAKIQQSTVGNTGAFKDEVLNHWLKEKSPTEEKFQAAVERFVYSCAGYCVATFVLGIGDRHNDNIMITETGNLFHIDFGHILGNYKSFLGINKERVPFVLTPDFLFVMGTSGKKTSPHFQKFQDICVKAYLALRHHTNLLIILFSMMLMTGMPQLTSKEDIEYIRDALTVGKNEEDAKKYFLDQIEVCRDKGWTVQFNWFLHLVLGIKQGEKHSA

Molecular target: Phosphatidylinositol 4,5-bisphosphate 3-kinase catalytic subunit gamma isoform (Homo sapiens, UniProt P48736)

Structure (SMILES): O=c1cc(N2CCOCC2)oc2c(-c3ccccc3)cccc12 [LY-294002]
- IC50: 12 µM
